Biological target: MAO-B (Mus musculus, UniProt Q8BW75)
Test: Ex vivo inhibition of brain MAO-B after i.p. administration
Conditions: mouse brain homogenate 2 hours after i.p., l-deprenyl 10 mg/Kg, tested compound 4 mg/Kg

By UniProt entry, the sequences of proteins in these tests, tags left out.
UniProt Q8BW75, whole entry: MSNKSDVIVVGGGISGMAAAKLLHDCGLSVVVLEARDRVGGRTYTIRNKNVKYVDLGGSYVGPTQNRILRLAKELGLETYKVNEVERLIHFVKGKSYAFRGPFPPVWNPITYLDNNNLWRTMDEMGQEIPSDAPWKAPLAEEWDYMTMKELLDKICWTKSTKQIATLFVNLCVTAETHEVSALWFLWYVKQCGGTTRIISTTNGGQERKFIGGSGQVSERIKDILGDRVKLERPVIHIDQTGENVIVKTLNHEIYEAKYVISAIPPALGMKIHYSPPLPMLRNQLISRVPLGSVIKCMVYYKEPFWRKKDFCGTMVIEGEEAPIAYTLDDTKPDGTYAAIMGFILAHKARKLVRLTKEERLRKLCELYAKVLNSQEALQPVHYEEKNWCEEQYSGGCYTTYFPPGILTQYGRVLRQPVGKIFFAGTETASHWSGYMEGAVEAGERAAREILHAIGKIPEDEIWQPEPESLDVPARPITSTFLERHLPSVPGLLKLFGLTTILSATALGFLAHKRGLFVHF

With `C#CCN(C)[C@H](C)Cc1ccccc1` [deprenyl, reference compound] the “MAO-B ACTIVITY” value (control 303) was 15 and the “MAO-B ACTIVITY (% of control)” value (control = 100%) was 4.8%.

Reference: patent EP0754455A1, “PHARMACEUTICAL COMPOSITIONS BASED ON AMINOMETHYLINDOLES AND THEIR THERAPEUTICAL APPLICATION AS NEUROPROTECTORS IN PARKINSON AND ALZHEIMER DISEASES” (CONSEJO SUPERIOR INVESTIGACIONES CIENTIFICAS (CSIC), priority 1995, dated 1996)
